Target: T1, human proteasome activator 200 (PA200) (human, UniProt Q14997)
T1 construct: Carries the cofactors 5,6[PP]2-InsP4 and InsP6 in its two openings; The results say 1,844 residues, the methods 1-1,843; source: Trichoplusia ni (Hi5) insect cells, baculovirus (Bac-to-Bac), purified (Ni-NTA, gel filtration on Superose 6)
Assay: cryo-EM structure; 3 μl 20S-CP (approximately 1.4 mg/ml) incubated with 6 μl PA200 (approximately 0.44 mg/ml) in ice for 1 h; single-capped PA200-20S particles selected; 2.72 Å
Settings: both partners purified

B1: human 20S proteasome subunit α6 (natural protein)
chain: MFRNQYDNDVTVWSPQGRIHQIEYAMEAVKQGSATVGLKSKTHAVLVALKRAQSELAAHQKKILHVDNHIGISIAGLTADARLLCNFMRQECLDSRFVFDRPLPVSRLVSLIGSKTQIPTQRYGRRPYGVGLLIAGYDDMGPHIFQTCPSANYFDCRAMSIGARSQSARTYLERHMSEFMECNLNELVKHGLRALRETLPAEQDLTTKNVSIGIVGKDLEFTIYDDDDVSPFLEGLEERPQRKAQPAQPADEPAEKADEPMEH
notes: 20S proteasome subunit α6, human; named only as α6; Stood in the experiment as a subunit of the whole 20S core particle; source: bought: Boston Biochem, as part of the human 20S proteasome
binding result: binds

Reference: publication PMC7077846 (PLoS Biology, 2020)
